Where two headings read alike, the source gives them in different places.
What was measured:
[1] = system: peptide probe immobilized on carboxyl-GO chip; assay: SPR selectivity test with interfering proteins, spiked 10% serum; assay type: binding; conditions: protein 500 pM, 60 μL/min, measured six times
[2] = system: peptide aptamer immobilized on carboxyl-GO chip; assay: SPR angle shift on hCG binding to peptide, carboxyl-GO-based chip, PBS buffer; conditions: for SPR angle shift: carboxyl-GO chip, 30 μL/min
[3] = system: peptide aptamer immobilized on GO chip; assay: SPR angle shift on hCG binding to peptide, GO-based chip, PBS buffer; conditions: for SPR angle shift: GO chip, 30 μL/min
[4] = system: peptide probe immobilized on carboxyl-GO chip; assay: SPR selectivity test with interfering proteins, PBS buffer; assay type: binding; conditions: for average SPR angle shift: protein 500 pM, PBS buffer, 60 μL/min, measured six times
[5] = until pre-pregnancy levels are reached; cited from earlier work
[6] = cited from earlier work
[7] = system: peptide probe immobilized on carboxyl-GO chip; assay: SPR detection of hCG in clinical serum samples, peptide-carboxyl-GO chip; assay type: binding; conditions: for mean hCG SPR angle: mean ± SD

## Human chorionic gonadotropin [hCG]
[1]
  average SPR angle shift: 19.13 m^o
[2]; hCG 1 pM
  SPR angle shift: 0.287 m^o
[2]; hCG 1 pM, carboxyl-GO-based chip, n = 3
  θSPR at detection limit: 0.287 ± 0.03 m^o
[2]; hCG 10 pM
  SPR angle shift: 1.264 m^o
[2]; hCG 50 pM
  SPR angle shift: 3.527 m^o
[2]; hCG 100 pM
  SPR angle shift: 7.532 m^o
[2]; hCG 250 pM
  SPR angle shift: 10.073 m^o
[2]; hCG 500 pM
  SPR angle shift: 16.476 m^o
[2]; hCG 1 nM
  SPR angle shift: 32.118 m^o
[3]; GO-based chip, n = 3
  Detection Limit: 10 pM
[3]; hCG 10 pM
  SPR angle shift: 0.809 m^o
[3]; hCG 10 pM, GO-based chip, n = 3
  θSPR at detection limit: 0.81 ± 0.1 m^o
[3]; hCG 50 pM
  SPR angle shift: 2.467 m^o
[3]; hCG 100 pM
  SPR angle shift: 6.106 m^o
[3]; hCG 250 pM
  SPR angle shift: 8.334 m^o
[3]; hCG 500 pM
  SPR angle shift: 11.557 m^o
[3]; hCG 1 nM
  SPR angle shift: 22.155 m^o
[4]
  average SPR angle shift: 17.19 m^o
[5]
  half-life: 24 to 36 h
[6]; ELISA, serum samples
  Detection Limit: 18 mIU/mL
[6]; ELISA, urine samples
  Detection Limit: 17 mIU/mL
[6]; Electrochemistry (LPCs-SnS2 and AuNPs), serum samples
  Detection Limit: 6.4 pg/mL
[6]; Electrochemistry (silver nanoparticles), serum samples
  Detection Limit: 0.4 mIU/mL
[6]; Fluorescent (graphene oxide), buffer samples
  Detection Limit: 20 mIU/mL
[6]; GO-COOH-based SPR biosensor, serum of pregnant women (14 weeks), 1.15 pM
  θSPR at detection limit: 1.56 ± 0.2 m^o
[7]; FDSW group (n = 6), 5k-fold, P=0.004 vs NPW
  mean hCG SPR angle: 44.27 ± 13.29 m^o
[7]; FDSW group (n = 6), 10k-fold, P=0.013 vs NPW
  mean hCG SPR angle: 22.53 ± 5.58 m^o
[7]; FDSW-1, serum 5k-fold (76.4 pM)
  SPR angle shift: 41.88 m^o
[7]; FDSW-1, serum 10k-fold
  SPR angle shift: 21.76 m^o
[7]; FDSW-1, serum 200k-fold (1.9 pM)
  SPR angle shift: 0.97 m^o
[7]; FDSW-2, serum 5k-fold (135 pM)
  SPR angle shift: 66.69 m^o
[7]; FDSW-2, serum 10k-fold
  SPR angle shift: 21.56 m^o
[7]; FDSW-2, serum 200k-fold (3.4 pM)
  SPR angle shift: 1.25 m^o
[7]; FDSW-3, serum 5k-fold (97.8 pM)
  SPR angle shift: 44.48 m^o
[7]; FDSW-3, serum 10k-fold
  SPR angle shift: 19.26 m^o
[7]; FDSW-3, serum 200k-fold (2.4 pM)
  SPR angle shift: 6.74 m^o
[7]; FDSW-4, serum 5k-fold (83.7 pM)
  SPR angle shift: 30.18 m^o
[7]; FDSW-4, serum 10k-fold
  SPR angle shift: 17.79 m^o
[7]; FDSW-4, serum 200k-fold (2.1 pM)
  SPR angle shift: 4.75 m^o
[7]; FDSW-5, serum 5k-fold (86.2 pM)
  SPR angle shift: 32.33 m^o
[7]; FDSW-5, serum 10k-fold
  SPR angle shift: 21.37 m^o
[7]; FDSW-5, serum 200k-fold (2.2 pM)
  SPR angle shift: 2.47 m^o
[7]; FDSW-6, serum 5k-fold (105.1 pM)
  SPR angle shift: 50.05 m^o
[7]; FDSW-6, serum 10k-fold
  SPR angle shift: 33.46 m^o
[7]; FDSW-6, serum 200k-fold (2.6 pM)
  SPR angle shift: 0.49 m^o
[7]; NPW group (n = 4), 5k-fold, P=0.004 vs FDSW
  mean hCG SPR angle: 17.43 ± 2.60 m^o
[7]; NPW group (n = 4), 10k-fold, P=0.013 vs FDSW
  mean hCG SPR angle: 11.55 ± 4.87 m^o
[7]; NPW-1, 15 weeks, serum 5k-fold (32.8 pM)
  SPR angle shift: 17.83 m^o
[7]; NPW-1, 15 weeks, serum 10k-fold (16.4 pM)
  SPR angle shift: 9.27 m^o
[7]; NPW-2, 12 weeks, serum 5k-fold (34.1 pM)
  SPR angle shift: 17.67 m^o
[7]; NPW-2, 12 weeks, serum 10k-fold (17.0 pM)
  SPR angle shift: 11.13 m^o
[7]; NPW-3, 14 weeks, serum 5k-fold (25.3 pM)
  SPR angle shift: 13.95 m^o
[7]; NPW-3, 14 weeks, serum 10k-fold (12.65 pM)
  SPR angle shift: 7.32 m^o
[7]; NPW-4, 17 weeks, serum 5k-fold (37.07 pM)
  SPR angle shift: 20.25 m^o
[7]; NPW-4, 17 weeks, serum 10k-fold (18.53 pM)
  SPR angle shift: 18.46 m^o
[7]; hCG 1.9 pM in serum, carboxyl-GO chip, n = 3
  θSPR at LOD: 0.97 ± 0.1 m^o

## human serum albumin [HSA]
[1]
  average SPR angle shift: 2.41 m^o
[4]; 500 pM, carboxyl-GO-based SPR aptasensor, PBS and spiked 10% serum
  interference signal: close to that of a blank solution
[4]
  average SPR angle shift: 1.52 m^o

Reference: publication PMC7594198 (International Journal of Nanomedicine, 2020)
